Results on 22 compounds are retold here after PubChem BioAssay AID743247 (Broad Institute, 2014).

The list shows a part of the results, in another mix than the full data. Some of these compounds have results that are not shown, active ones among them. The source made the active and inactive calls.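 How the source made its calls: active means mean inhibition across replicates of 30% or more, regardless of how many single replicates reach that level; inconclusive means mean under 30% yet at least half of replicates reach 30%; inactive means the rest.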

A short description of the test: blockers of fibronectin fibrillogenesis by fibroblasts – AH1F cells, Alexa488-fibronectin fluorescence, plate reader, primary screen (AID 743247).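 Further: positive control wells lacked labelled fibronectin entirely.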 The settings on record: Alexa488-fibronectin deposition fluorescence, overnight, at 12.6 µM, hits give high values. In outline: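 material = AH1F fibroblast monolayer depositing Alexa488-labelled fibronectin into matrix | amount = 10000 AH1F cells/well | buffer or medium = DMEM plus 2% serum, read in PBS | incubation = 1 h cell adhesion before compound, then overnight fibronectin incubation | detection = fluorescence at 485 nm excitation, 525 nm emission | evaluation = percent inhibition as loss of matrix-bound fibronectin fluorescence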
In the case of `CN1[C@@H]2CC[C@H]1CC(OC(=O)C(O)(c1ccccc1)c1ccccc1)C2` (some centres not stated), the inhibition (as a rule, the change of the read-out against control, counted positive when it falls) is inactive: -7.82%. Take `O=C(NCC1(N2CCCCC2)CCCCC1)c1cc([N+](=O)[O-])ccc1Cl`: the inhibition is inactive: -5.13%.

Regarding `Cc1ccc(C(=O)NCC2(N3CCCCC3)CCCCC2)cc1`, the inhibition was inactive: 2.91%. For `COc1cc(SC)ccc1C(=O)NCC1(N(C)C)CCCCC1` the value was inactive: 1.46%; for `CCN(CC)CC(C)C(C)OC(=O)C(O)(c1ccccc1)c1ccccc1` (configuration not stated), inactive: -5.28%. On to `CN(C)c1ccc(C(=O)NCC2(N(C)C)CCCCC2)cc1`, for which the inhibition is inactive: -1.59%. With `CN(C)C1CCCC1OC(=O)C(O)(c1ccccc1)c1ccccc1` (configuration not stated) the figure was inactive: -1.6%; with `Cc1ccccc1C(=O)NCC1(N2CCCCC2)CCCCC1`, inactive: -3.44%; with `COc1ccc(C(=O)NCC2(N(C)C)CCCCC2)cc1`, inactive: -1.4%.

As to `O=C(NCC1(N2CCCCC2)CCCCC1)c1cccc(Br)c1`, the inhibition is inactive: -1.7%. For `CCN1CCCC(OC(=O)C2(O)c3ccccc3C=Cc3ccccc32)C1` (configuration not stated) the value was inactive: -2.64%. For `Cc1cc(C(=O)NCC2(N3CCCCC3)CCCCC2)ccc1[N+](=O)[O-]` the value was inactive: 4.83%; for `O=C(NCC1(N2CCCCC2)CCCCC1)c1cc(F)c(F)cc1Cl`, inactive: -14.3%. Regarding `COc1cc(C(=O)NCC2(N(C)C)CCCCC2)c([N+](=O)[O-])cc1OC`, the inhibition is inactive: 6.34%. `CN(C)C1(CNC(=O)c2ccc(Br)cc2)CCCCC1`: the inhibition is inactive: 0.693%. With `O=C(NCC1(N2CCCCC2)CCCCC1)c1cccc(Cl)c1` the figure was inactive: 1.97%; with `COc1ccc(Cl)cc1C(=O)NCC1(N(C)C)CCCCC1`, inactive: -3.13%; with `COc1cccc(C(=O)NCC2(N3CCCCC3)CCCCC2)c1`, inactive: 11.8%. Turning to `O=C(OCCN1CCCC1)C(O)(c1ccccc1)c1ccccc1`, the inhibition was inactive: -9.65%.

Consider `CC(C)Oc1ccc(C(=O)NCC2(N(C)C)CCCCC2)cc1`, for which the inhibition was inactive: 4.18%.

Consider `C=C(C)C#CC(O)(C(=O)OC1CCN(C)CC1)c1ccccc1` (configuration not stated), for which the inhibition was inactive: 4.72%.

Take `COc1ccc(Br)c(C(=O)NCC2(N3CCCCC3)CCCCC2)c1`: the inhibition was inactive: -14.4%.
